By IC50 is commonly meant the concentration that inhibits the measured activity by half. Low readings indicate greater potency in that assay, high ones weaker potency in that assay. By EC50 is commonly meant the concentration giving half of the maximal effect. Read a low EC50 as higher potency in that assay.

Amino acid sequences for entries named in this document (tags omitted).
UniProt P28223, whole entry: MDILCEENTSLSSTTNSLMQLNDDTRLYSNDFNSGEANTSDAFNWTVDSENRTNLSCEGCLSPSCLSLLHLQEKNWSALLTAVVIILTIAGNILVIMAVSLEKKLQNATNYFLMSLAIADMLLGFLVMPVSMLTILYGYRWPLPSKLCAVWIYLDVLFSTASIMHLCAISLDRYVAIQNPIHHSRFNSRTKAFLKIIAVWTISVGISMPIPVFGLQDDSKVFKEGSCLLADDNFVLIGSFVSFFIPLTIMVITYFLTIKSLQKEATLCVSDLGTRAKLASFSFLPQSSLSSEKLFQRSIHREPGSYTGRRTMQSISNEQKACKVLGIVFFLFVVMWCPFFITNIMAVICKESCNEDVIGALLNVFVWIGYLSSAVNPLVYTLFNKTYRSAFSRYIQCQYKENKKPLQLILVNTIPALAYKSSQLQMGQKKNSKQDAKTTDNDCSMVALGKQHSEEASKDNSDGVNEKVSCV
UniProt P08908, whole entry: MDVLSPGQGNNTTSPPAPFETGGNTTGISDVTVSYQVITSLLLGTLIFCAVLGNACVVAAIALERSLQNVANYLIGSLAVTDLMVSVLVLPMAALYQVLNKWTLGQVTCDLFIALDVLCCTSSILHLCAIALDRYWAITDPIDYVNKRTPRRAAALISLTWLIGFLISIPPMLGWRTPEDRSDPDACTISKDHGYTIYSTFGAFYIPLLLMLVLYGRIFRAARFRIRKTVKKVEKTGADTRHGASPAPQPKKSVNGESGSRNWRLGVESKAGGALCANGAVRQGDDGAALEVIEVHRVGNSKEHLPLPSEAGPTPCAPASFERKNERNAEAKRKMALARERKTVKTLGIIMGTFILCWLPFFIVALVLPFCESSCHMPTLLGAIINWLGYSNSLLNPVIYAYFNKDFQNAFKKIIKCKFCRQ

Our source for the IC50 and EC50 values is patent publication US10745401B2, “Condensed lactam derivative” (Sumitomo Dainippon Pharma Co., Ltd., priority 2018, dated 2020).

One test addresses human 5-HT2A receptor (Homo sapiens (Human), UniProt P28223). Briefly: Test 3: antagonist activity for human 5-HT2A receptor (aequorin luminescence, CHO-K1 cells). The class given is cell-based. The following applies: 1 nmol/L 5-HT. The procedure:
Test 3: Evaluation of Antagonist Activity for Human 5-HT2A Receptor
Aequorin, Gα16 protein, and each receptor were transiently expressed in CHO-K1 cells (Chinese hamster ovary). […] Each compound dissolved in DMSO was added thereto, and changes in luminescence were measured by FDSS/μCELL functional drug screening system (Hamamatsu Photonics K.K.). Antagonist activity was calculated from the following formula. Antagonist activity (%)=100×{(Luminescence of well in the presence of 1 nmol/L 5-HT−Luminescence of well containing solvent)−(Luminescence of well in the presence of test compound and 1 nmol/L 5-HT−Luminescence of well containing solvent)}/(Luminescence of well in the presence of 1 nmol/L 5-HT−Luminescence of well containing solvent)

A further test addresses human 5-HT1A receptor (Homo sapiens (Human), UniProt P08908). Briefly: Test 2: agonist activity for human 5-HT1A receptor ([35S]GTPγS binding). The class given is biochemical. The following applies: concentration at which half the activity of Emax was obtained. The procedure:
Test 2: Evaluation of Agonist Activity for Human 5-HT1A Receptor
CHO cell membrane fraction in which human 5-HT1A receptor was expressed as used in Test 1 was purchased. To a buffer containing guanosine diphosphate were added a test compound dissolved in DMSO, each receptor membrane sample diluted with buffer, and [^35S] Guanosine 5′-O-[gamma-thio]triphosphate (GTPγS). The mixture was incubated at room temperature for 60 minutes. Then, the mixture was added quickly on a glassfiber filter plate (Multiscreen FB, Millipore, Inc.), and vacuum-filtered. Radioactivity remaining on the […] was measured with a liquid scintillation counter. Agonist activity was calculated from the following formula.

Turning to `O=C1c2cccnc2CCN1CCN1CCN(c2nsc3ccccc23)CC1` [Example 9], half-maximal inhibition at human 5-HT2A receptor (IC50) was put at 2.64 nM. In the case of `Cn1cc2c(n1)CCN(CCN1CCC(c3noc4ccccc34)CC1)C2=O` [Example 17], on human 5-HT1A receptor, the 50% effective concentration (EC50) was determined as 47.1 nM. The same measure, in the same setting: in the case of `Cn1cc2c(n1)C(=O)N(CCN1CCC(c3noc4ccccc34)CC1)CCC2` [Example 48] it was 19.3 nM.
